Data from ChEMBL document CHEMBL1799982, “Synthesis, protein kinase inhibitory potencies, and in vitro antiproliferative activities of meridianin derivatives” (J Med Chem, 2011).
pIC50: −log10 of the molar value.

Protein sequences, listed by entry. Tags and fused reporters are not part of them. Lines headed by an entry give the natural chain unless they say otherwise; changes in a name come on top.
UniProt P49759: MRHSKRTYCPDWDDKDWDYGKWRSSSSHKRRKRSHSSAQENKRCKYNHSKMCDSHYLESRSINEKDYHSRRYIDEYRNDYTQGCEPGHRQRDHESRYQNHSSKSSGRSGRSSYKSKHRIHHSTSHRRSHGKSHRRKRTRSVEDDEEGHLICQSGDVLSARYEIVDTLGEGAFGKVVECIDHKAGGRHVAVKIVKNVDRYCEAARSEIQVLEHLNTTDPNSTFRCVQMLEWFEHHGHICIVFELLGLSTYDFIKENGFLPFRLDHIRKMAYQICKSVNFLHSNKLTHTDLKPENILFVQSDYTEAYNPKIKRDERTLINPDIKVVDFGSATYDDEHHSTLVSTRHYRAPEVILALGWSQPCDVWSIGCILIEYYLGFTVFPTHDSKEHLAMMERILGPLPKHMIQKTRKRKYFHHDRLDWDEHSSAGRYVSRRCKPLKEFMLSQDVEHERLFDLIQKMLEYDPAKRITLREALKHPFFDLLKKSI

Target: Dual specificity protein kinase CLK1 (Homo sapiens, UniProt P49759)

With `CC(=O)c1ccc(-c2cnc(N)nc2-c2c[nH]c3cccc(Br)c23)cc1` the pIC50 was 5.82.
